The results in this text go back to PubChem BioAssay AID411 (National Center for Advancing Translational Sciences (NCATS), 2006).

Chains of the proteins cited; added tags and fusions are not shown.
UniProt P08659, whole entry, looked up: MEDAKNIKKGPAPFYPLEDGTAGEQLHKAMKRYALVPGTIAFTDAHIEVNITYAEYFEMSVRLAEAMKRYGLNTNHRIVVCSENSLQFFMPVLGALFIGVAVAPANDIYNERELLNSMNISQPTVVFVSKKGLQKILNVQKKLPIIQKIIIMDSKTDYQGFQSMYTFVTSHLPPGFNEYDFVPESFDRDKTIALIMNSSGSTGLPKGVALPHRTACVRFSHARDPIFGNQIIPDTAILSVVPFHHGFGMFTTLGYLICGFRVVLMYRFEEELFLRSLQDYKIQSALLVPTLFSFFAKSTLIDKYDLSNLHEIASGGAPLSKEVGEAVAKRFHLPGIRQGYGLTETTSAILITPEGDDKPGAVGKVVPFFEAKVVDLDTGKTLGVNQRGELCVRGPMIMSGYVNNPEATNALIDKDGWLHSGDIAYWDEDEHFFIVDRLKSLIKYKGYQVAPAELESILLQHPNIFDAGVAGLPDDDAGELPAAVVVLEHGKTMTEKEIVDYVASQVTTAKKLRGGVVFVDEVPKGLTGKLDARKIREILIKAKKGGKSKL

“And” between values parts separate entries of the source, which are not always exact repeats. Identical values can stand only once. The entries are a selection whose mix differs from that of the whole data set. The source made the active and inactive calls. Calls come from the whole dose curve; as a rule, active = well fitted inhibition curve with a large enough effect; inconclusive = small, poorly fitted or top-dose-only effect; inactive = flat fitted curve, though single readings scatter.
% is set by controls: 0 for no effect and ±100 for the full control effect.

The assay deals with Luciferin 4-monooxygenase (Photinus pyralis) (UniProt P08659). Nature of the assay: qHTS Assay for Inhibitors of Firefly Luciferase. Note: nearly all actives have a fitted effect of over 40% in size. The settings on record: purified firefly luciferase, luminescence, 8 min; at 57.1 µM (top of the series) unless noted. As to the method: To aid in the interpretation of high-throughput screening (HTS) results derived from luciferase-based assays, we used quantitative HTS, an approach that defines the concentration-response behavior of each library sample, to profile the ATP-dependent luciferase from Photinus pyralis against more than 72 000 samples. Luciferase (PKLight, Cambrex Corporation) was assayed for its ability to generate light using ATP and luciferin as substrates. The ATP concentration in the assay (10 uM) was within the linear range of enzyme activity for the assay conditions used. See following reference for further details: [1] Auld DS, Southall NT, Jadhav A, Johnson RL, Diller DJ, Simeonov A, Austin CP, Inglese J. Characterization of chemical libraries for luciferase inhibitory activity. J Med Chem. 2008 Apr 24;51(8):2372-86. Auld DS, Zhang YQ, Southall NT, Rai G, Landsman M, Maclure J, Langevin D, Thomas CJ, Austin CP, Inglese J. A Basis for Reduced Chemical Library Inhibition of Firefly Luciferase Obtained from Directed Evolution. J. Med. Chem., 2009, 52 (5), pp 1450#1458 [3] Auld DS, Thorne N, Nguyen DT, Inglese J. A specific mechanism for nonspecific activation in reporter-gene assays. ACS Chem Biol. 2008 Aug 15;3(8):463-70. Auld DS, Thorne N, Maguire WF, Inglese J. Mechanism of PTC124 activity in cell-based luciferase assays of nonsense codon suppression. Proc Natl Acad Sci U S A. 2009 Mar 3;106(9):3585-90. Inglese J, Auld DS, Jadhav A, Johnson RL, Simeonov A, Yasgar A, Zheng W, Austin CP. Quantitative high-throughput screening: a titration-based approach that efficiently identifies biological activities in large chemical libraries. Proc Natl Acad Sci U S A. 2006 Aug 1;103(31):11473-8.
Four uL of substrate mix (final concentration, 50 mM imidazole pH 7.2, 50 mM KCl, 7 mM MgCl2, 10 uM ATP, 0.01% Tween 20, 0.05% BSA) was dispensed into white 1536 well plates. Twenty-three nL of compound was delivered by a pin tool and 2 uL of luciferase detector mix (PKLight, Cambrex) was added. Following 8-minute incubation at ambient temperature, luminescence was measured by a ViewLux (Perkin Elmer) at 5 seconds exposure/plate.
(In general: qHTS replaces the single test concentration by a dilution series.)
For `NC(=O)Nc1ccc([As](=O)(O)O)cc1`, the activity change, negative = inhibition is inactive: -1.65% [at 25.5 µM].
For `CCOP1(=S)c2c(C)nn(CCC#N)c2N=C(c2ccc(F)cc2)N1C` (stereo unspecified), the activity change, negative = inhibition was inactive: 1.9%.
Next, `CCOP1(=S)c2c(C)nn(CCC#N)c2N=C(c2ccccc2F)N1C` (stereo unspecified): inactive: 6.99%; `O=P(Nc1nccs1)(c1ccccc1)c1nc2ccccc2s1` (stereo unspecified): inactive: -16.4%; `O=[As](O)(O)c1ccc([As](=O)(O)O)cc1`: inactive: 0.548% [at 11.4 µM].
The result for `NS(=O)(=O)Cc1ccc([As](=O)(O)O)cc1` reads inactive: 1.56% [at 11.4 µM].
As to `O=C(CC(=O)c1ccccc1)O[C@H]1CN2CCC1CC2`, the activity change, negative = inhibition was inactive: 2.26% [at 11.4 µM].
Next, `CN(C(=O)Cc1ccc(Cl)c(Cl)c1)[C@@H]1CC[C@@]2(CCCO2)C[C@H]1N1CCCC1`: inactive: 3.62%.
Next, `Cc1cccc(OCC(=O)OC2CN3CCC2CC3)c1` (stereo unspecified): inactive: -2.03% [at 25.5 µM]; `CN(C(=O)Cc1ccc(Cl)c(Cl)c1)[C@@H]1CCCC[C@H]1N1CCCC1`: inactive: 0.882% [middle of 4 runs].
`O=P1(Nc2ccccn2)COc2ccccc2OC1`: the activity change, negative = inhibition was inactive: 1.66%.
Regarding `CN(CCCl)Cc1cc(Cl)c(NC2=NCCN2)c(Cl)c1`, the activity change, negative = inhibition is inactive: -0.601%.
The result for `Clc1n[nH]nc1-c1nn[nH][15n]1` reads inactive: 0.216%.
The result for `O=P1(Nc2ncccn2)COc2ccccc2OC1` reads inactive: 1.09%; that for `Cc1ccc(OCC(=O)OC2CN3CCC2CC3)cc1` (stereo unspecified), inactive: 1.53% [at 25.5 µM]; that for `O=P1(Nc2ccc(Br)cn2)COc2ccccc2OC1`, inactive: 1.31%.
The result for `Cc1nn(-c2ccccc2)c2c1P(=O)(N1CCOCC1)N(C)C(c1ccccc1)=N2` (stereo unspecified) reads inactive: 1.54%.
As to `COP1(=S)c2c(C)nn(CCC#N)c2N=C(c2ccc(F)cc2)N1C` (stereo unspecified), the activity change, negative = inhibition was inactive: -33.7%.
Next, `O=C(COc1ccccc1)OC1CN2CCC1CC2` (stereo unspecified): inactive: 0.139%; `O=C(O)[C@@H](O)c1ccc([As](=O)(O)O)cc1`: inactive: 2.15% [at 11.4 µM]; `O=C(OC1CN2CCC1CC2)C12CC3CC(CC(C3)C1)C2` (stereo unspecified): inactive: 0.182%.
As for `NC(=O)Nc1cc([As](=O)(O)O)cc(I)c1O`, the activity change, negative = inhibition is inactive: 2.52% [at 11.4 µM].
Consider `O=[As]c1ccc(S(=O)(=O)NCCO)cc1` (stereo unspecified), for which the activity change, negative = inhibition is inactive: -13.2% [at 11.4 µM].
In the case of `[N-]=[N+]=NCC(N)=O`, the activity change, negative = inhibition was inactive: 4.54% [at 11.4 µM].
Next, `[N-]=[N+]=NCC(O)CN=[N+]=[N-]` (stereo unspecified): inactive: 2.22% [at 11.4 µM]; `C(Cc1nn[nH]n1)c1nn[nH]n1`: inactive: -0.115% [at 11.4 µM]; `CN(C(=O)Cc1ccc(Cl)c(Cl)c1)[C@H]1CCCC[C@@H]1N1CCCC1`: inactive: 3.49% and inactive: -2.05% and inactive: -0.451%.
As for `Cc1c2non([O-])c-2c(C)[n+](=O)[n+]1[O-]`, the activity change, negative = inhibition was inactive: -9.14%.
The result for `NCC[C@@H](N)CSP(=O)(O)O` reads inactive: 2.11% [at 11.4 µM].
Consider `O=[N+]([O-])c1ccc(C[As](=O)(O)O)cc1`, for which the activity change, negative = inhibition was inactive: 1.4% [at 11.4 µM].
As to `O=C(CO)Nc1ccc([As](=O)(O)O)cc1`, the activity change, negative = inhibition is inactive: 1.32% [at 11.4 µM].
As to `CCc1nc2c(n1)c1c(non1O)c1c2no[n+]1[O-]`, the activity change, negative = inhibition was inactive: -3.06%.
Next, `CN(C(=O)Cc1ccccc1)[C@@H]1CC[C@@]2(CCCO2)C[C@H]1N1CCCC1`: inactive: -0.257%.
Consider `O=C(OC1CN2CCC1CC2)c1cccc(Cl)c1` (stereo unspecified), for which the activity change, negative = inhibition is inactive: 2.7%.
`[N-]=[N+]=Nc1ccc([As](=O)(O)O)cc1`: the activity change, negative = inhibition is inactive: -1.4% [at 11.4 µM].
Consider `CN1CCC[C@H](OC(=O)C(c2ccccc2)c2ccccc2)C1`, for which the activity change, negative = inhibition is inactive: -1.53% [at 11.4 µM].
Regarding `C[C@@H](O)COc1ccc([As](=O)(O)O)cc1N`, the activity change, negative = inhibition was inactive: -0.238% [at 11.4 µM].
Regarding `O=P(Nc1nccs1)(c1ccccc1)c1ccccc1`, the activity change, negative = inhibition is inactive: 6.03%.
With `c1nnnn1CCn1cnnn1`, the activity change, negative = inhibition was inactive: 2.13%.
Take `O=P1(Nc2nc3ccc(Cl)cc3s2)COc2ccccc2O1` (stereo unspecified): the activity change, negative = inhibition is inactive: -8.91%.
As for `COC(=O)c1cc2c(s1)N=C(c1ccccc1)N(C)P2(=O)N1CCOCC1` (stereo unspecified), the activity change, negative = inhibition is inactive: 0.0889%.
